Test results published in patent US5494917A, “Cognition enhancing quinuclidine compound” (Kanegafuchi Kagaku Kogyo Kabushiki Kaisha, priority 1993, dated 1996).

System: experimental amnesia in rat induced by lesioning basal forebrain (BF)
Assay: Anti-amnesic effect: step-through passive avoidance, amnesia induced by BF lesion (ibotenic acid)
Format: in vivo, Wistar male rat
Conditions: 30 minutes before aquisition trial, retention after 24 hours, max 300 s
Description: As experimental animals, Wistar male rats and ddY male mice were used for the experiments after they were housed for a week under every 12 hours'dark-light cycle at room temperature of 24° to 26° C.
The effect on experimental amnesia in rat induced by lesioning basal forebrain (BF) was evaluated.
The experiment was carried out using an experimental apparatus of step-through type passive avoidance task for rat (made by Ohara-ika-sangyoK.K. ) comprising two compartments of dark and light. That is, the dark compartment (height: 200 cm, width: 150 cm, length: 200 cm) was a black plastic box and was floored with stainless grids for giving an electrical shock so that an electricity might be turned on a determined time after interception of a photobeam placed in the dark compartment. The light compartment made of transparent plastic (height: 200 cm, width: 250 cm, length: 200 cm) was provided adjacent to the dark compartment and was lightened from a location spaced 25 cm above by a 60 W electric lamp. Between the two compartments, there was provided an entrance with a guillotine door which could be opened and closed, and when the guillotine door was opened, a rat could freely move from one compartment to another.
Amnesia was induced by BF lesion. Among presently known methods for inducing amnesia, this method is considered to provide an animal model having the most similar pathology to Alzheimer's disease. […]
Anti-amnesic effect was evaluated according to the following procedure.
A Wistar male rat (9 week-old) previously conditioned in the dark-light box was put in the light compartment and the guillotine door was opened. […] After 24 hours, retention trial was carried out in the same manner as in the aquisition trial, and latency, a period until the animal put in the light compartment entered the dark compartment, was measured maximally 300 seconds. […]

SMILES: CC1OC2(CS1)CN1CCC2CC1 (stereo not drawn) [AF102B, cis-2-methylspiro(1,3-oxathiolane-5,3') quinuclidine, reference compound]
- Latency (0.1 mg/kg p.o.): 76 s
- Latency (1.0 mg/kg p.o.): 154 s
- Latency (10 mg/kg p.o.): 78 s
